# Target: human Nav1.6, Q9UQD0
# Conditions: chains peptide; modification not given
binder,measurement,value
GPYCQKWMWTCDSERKCCEGMVCRLWCKKKLW [recombinant Protoxin-II],IC50,2.2 nM
